By UniProt entry, the sequences of proteins in these tests, tags left out. Where a name states a change or a piece, a line headed by the entry shows the natural chain unless it says otherwise.
UniProt P30872: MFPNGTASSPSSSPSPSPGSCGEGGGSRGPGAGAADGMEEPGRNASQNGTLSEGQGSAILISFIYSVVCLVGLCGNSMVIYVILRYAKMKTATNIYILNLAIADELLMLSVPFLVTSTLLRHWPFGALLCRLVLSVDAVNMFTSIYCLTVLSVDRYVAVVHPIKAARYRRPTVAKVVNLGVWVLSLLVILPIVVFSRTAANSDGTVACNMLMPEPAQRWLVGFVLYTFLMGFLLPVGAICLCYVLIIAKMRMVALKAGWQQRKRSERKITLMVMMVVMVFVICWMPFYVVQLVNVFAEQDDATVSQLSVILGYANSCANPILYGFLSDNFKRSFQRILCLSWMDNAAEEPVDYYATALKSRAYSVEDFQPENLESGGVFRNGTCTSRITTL
UniProt P30874: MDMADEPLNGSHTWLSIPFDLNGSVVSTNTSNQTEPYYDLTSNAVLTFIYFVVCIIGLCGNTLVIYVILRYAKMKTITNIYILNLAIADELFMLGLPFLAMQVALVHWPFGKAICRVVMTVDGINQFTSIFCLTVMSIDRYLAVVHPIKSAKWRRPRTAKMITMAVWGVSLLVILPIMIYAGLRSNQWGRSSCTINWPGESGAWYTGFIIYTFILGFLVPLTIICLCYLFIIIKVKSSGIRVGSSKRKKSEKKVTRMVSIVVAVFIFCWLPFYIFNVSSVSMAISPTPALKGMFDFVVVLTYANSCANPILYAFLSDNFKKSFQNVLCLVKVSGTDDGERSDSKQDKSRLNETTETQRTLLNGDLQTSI
UniProt P32745: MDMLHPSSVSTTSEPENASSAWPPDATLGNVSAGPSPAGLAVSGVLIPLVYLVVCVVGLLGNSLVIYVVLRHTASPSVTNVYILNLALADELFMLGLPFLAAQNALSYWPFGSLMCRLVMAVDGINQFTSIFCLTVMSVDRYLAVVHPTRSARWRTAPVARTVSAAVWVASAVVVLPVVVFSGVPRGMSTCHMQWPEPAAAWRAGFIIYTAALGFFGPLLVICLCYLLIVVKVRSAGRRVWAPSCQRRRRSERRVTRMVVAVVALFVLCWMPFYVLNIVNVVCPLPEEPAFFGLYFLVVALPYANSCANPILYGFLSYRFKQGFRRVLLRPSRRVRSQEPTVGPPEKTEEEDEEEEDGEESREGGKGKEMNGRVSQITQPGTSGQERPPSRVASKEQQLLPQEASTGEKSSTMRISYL
UniProt P35346: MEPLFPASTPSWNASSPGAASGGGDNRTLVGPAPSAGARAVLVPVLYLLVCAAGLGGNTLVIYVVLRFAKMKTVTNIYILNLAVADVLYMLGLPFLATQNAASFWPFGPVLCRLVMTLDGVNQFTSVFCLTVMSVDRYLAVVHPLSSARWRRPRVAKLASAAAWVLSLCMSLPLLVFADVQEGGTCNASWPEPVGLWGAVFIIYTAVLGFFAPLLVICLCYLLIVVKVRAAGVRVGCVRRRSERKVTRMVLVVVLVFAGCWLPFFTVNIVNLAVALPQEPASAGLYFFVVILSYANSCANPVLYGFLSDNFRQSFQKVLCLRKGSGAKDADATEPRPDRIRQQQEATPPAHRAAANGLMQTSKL
UniProt P31391: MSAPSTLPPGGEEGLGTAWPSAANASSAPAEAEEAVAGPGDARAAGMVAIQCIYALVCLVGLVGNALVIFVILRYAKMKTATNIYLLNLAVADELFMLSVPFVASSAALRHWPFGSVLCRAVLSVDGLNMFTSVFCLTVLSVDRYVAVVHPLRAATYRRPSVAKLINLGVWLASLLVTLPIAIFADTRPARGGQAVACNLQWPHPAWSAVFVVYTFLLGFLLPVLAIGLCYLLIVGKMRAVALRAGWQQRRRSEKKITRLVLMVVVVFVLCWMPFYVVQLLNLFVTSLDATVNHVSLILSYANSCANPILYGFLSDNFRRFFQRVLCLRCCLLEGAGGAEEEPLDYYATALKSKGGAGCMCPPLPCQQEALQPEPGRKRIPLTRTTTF

According to patent US20170157260A1, “Glycosylated Polypeptide and Drug Composition Containing said Polypeptide” (Glytech, Inc., priority 2011, published 2017):

Tests used:
SSTR1 [1] = target: T1, SSTR1 (Homo sapiens, UniProt P30872); test: Agonist activity evaluation (cAMP production suppression), SSTR1 receptor expression cells; type: cell-based; conditions: Table 3E, Example 67-4; read-out: IC50 of the agonist activity, SSTR1
[2] = tested on: growth hormone (GH) production; test: GH production suppression test with rats; type: in vivo
SSTR1 [3] = target: T1, SSTR1
SSTR2 [4] = target: T2, SSTR2 (Homo sapiens, UniProt P30874)
SSTR3 [5] = target: T3, SSTR3 (Homo sapiens, UniProt P32745)
SSTR5 [6] = target: T4, SSTR5 (Homo sapiens, UniProt P35346)
[7] = Pharmacokinetics test with rats (intravenous and subcutaneous administration); conditions: rats; for BA: subcutaneous vs intravenous
SSTR1 [8] = target: T1, SSTR1; test: Competitive binding assay, SSTR1; conditions: Table 3B, Example 67-2, competitive binding assay
SSTR2 [9] = target: T2, SSTR2; test: Competitive binding assay, SSTR2; conditions: Table 3B, Example 67-2, competitive binding assay; for pKi: read-out: SSTR2 Ki
SSTR3 [10] = target: T3, SSTR3; test: Competitive binding assay, SSTR3; conditions: Table 3B, Example 67-2, competitive binding assay; for pIC50: read-out: SSTR3 IC50; for pKi: read-out: SSTR3 Ki
SSTR5 [11] = target: T4, SSTR5; test: Competitive binding assay, SSTR5; conditions: Table 3B, Example 67-2, competitive binding assay; for pIC50: read-out: SSTR5 IC50
SSTR4 = SSTR4 (Homo sapiens, UniProt P31391); test: Agonist activity evaluation (cAMP production suppression), SSTR4 receptor expression cells; type: cell-based; conditions: Table 3E, Example 67-4; read-out: IC50 of the agonist activity, SSTR4
SSTR2 [12] = target: T2, SSTR2; test: Agonist activity evaluation (cAMP production suppression), SSTR2 receptor expression cells; type: cell-based; parameters: host or cells: CHO-K1 cells; conditions: Table 3E, Example 67-4; read-out: IC50 of the agonist activity, SSTR2
SSTR3 [13] = target: T3, SSTR3; test: Agonist activity evaluation (cAMP production suppression), SSTR3 receptor expression cells; type: cell-based; parameters: host or cells: CHO-K1 cells; conditions: Table 3E, Example 67-4; read-out: IC50 of the agonist activity, SSTR3
SSTR5 [14] = target: T4, SSTR5; test: Agonist activity evaluation (cAMP production suppression), SSTR5 receptor expression cells; type: cell-based; parameters: host or cells: CHO-K1 cells; conditions: Table 3E, Example 67-4; read-out: IC50 of the agonist activity, SSTR5
[15] = Table 8 (Example 87), dose 1 nmol/kg, vehicle 1012
[16] = Table 8 (Example 87), dose 10 nmol/kg, vehicle 1012
[17] = intravenous administration, Tables 5B-5F (Examples 73-84)
[18] = subcutaneous administration, Tables 5B-5F (Examples 73-84)
[19] = Table 7 (Example 86), subcutaneous, dose 10 nmol/kg, 1 hour before GRF, plasma GH 5 minutes after GRF, vehicle 861
[20] = intravenous administration, Table 5A (Examples 69-72), spread in the line below
[21] = subcutaneous administration, Table 5A (Examples 69-72), spread in the line below
[22] = BA=(AUC(sc)/Dose(sc))/(AUC(iv)/Dose(iv)), Table 5A
[23] = Examples 69-72 (text on Table 5A)

| Substance | pIC50 (SSTR1 [1]) | GH [2, 15] [ng/mL] | GH [2, 16] [ng/mL] | pIC50 (SSTR1 [3]) | pKi (SSTR1 [3]) | pIC50 (SSTR2 [4]) | pKi (SSTR2 [4]) | pIC50 (SSTR3 [5]) | pKi (SSTR3 [5]) | pIC50 (SSTR5 [6]) | pKi (SSTR5 [6]) | pKi (SSTR2 [9]) | pIC50 (SSTR3 [10]) | pKi (SSTR3 [10]) | pIC50 (SSTR5 [11]) | pIC50 (SSTR4) | GH [2, 19] [ng/mL] | pIC50 (SSTR2 [12]) | pIC50 (SSTR3 [13]) | pIC50 (SSTR5 [14]) | also measured |
| --- | --- | --- | --- | --- | --- | --- | --- | --- | --- | --- | --- | --- | --- | --- | --- | --- | --- | --- | --- | --- | --- |
| S1C(disialo)-D-Trp22-SRIF28 [Example 15] | 8.46 | 335 | 6 | 8.65 | 8.73 | 10.49 | 10.76 | 9.08 | 9.55 | 9.25 | 9.50 |  |  |  |  |  |  |  |  |  | GH ([2]; Table 8 (Example 87), dose 0.3 nmol/kg, vehicle 1012): 986 ng/mL; GH ([2]; Table 8 (Example 87), dose 3 nmol/kg, vehicle 1012): 50 ng/mL; GH ([2]; Table 8 (Example 87), dose 30 nmol/kg, vehicle 1012): 2 ng/mL; Intravenous administration AUC [7, 17]: 4924 nM·min; Intravenous administration C0 [7, 17]: 588 nM; Intravenous administration MRT [7, 17]: 20.6 min; Intravenous administration T1/2 [7, 17]: 18.3 min; Subcutaneous administration AUC [7, 18]: 2220 nM·min; Subcutaneous administration Cmax [7, 18]: 34.0 nM; Subcutaneous administration MRT [7, 18]: 51.9 min; Subcutaneous administration T1/2 [7, 18]: 31.0 min; BA ([7]; Tables 5B-5F (Examples 73-84)): 45% |
| S1C(disialo)-SRIF28-amido [Example 42] | 8.77 |  |  |  |  |  |  |  |  |  |  | 9.15 | 8.23 | 8.69 | 8.43 |  |  |  |  |  | pKi (SSTR1 [8]; read-out: SSTR1 Ki): 8.39; pIC50 (SSTR2 [9]; read-out: SSTR2 IC50): 8.88 |
| S1C(disialo).N5C(disialo)-SRIF28 [Example 21] |  | 776 | 181 | 8.16 | 8.24 | 9.65 | 9.92 | 8.80 | 9.27 | 9.14 | 9.39 |  |  |  |  | 10.39 | 181 | 10.14 | 9.43 | 10.05 | GH ([2]; Table 7 (Example 86), subcutaneous, dose 1 nmol/kg, 1 hour before GRF, plasma GH 5 minutes after GRF, vehicle 861): 776 ng/mL; Intravenous administration AUC [7, 20]: 4099 nM·min; Intravenous administration C0 [7, 20]: 558 nM; Intravenous administration MRT [7, 20]: 24.6 min; Intravenous administration t1/2 [7, 20]: 25.8 min; Subcutaneous administration AUC [7, 21]: 3344 nM·min; Subcutaneous administration Cmax [7, 21]: 35.5 nM; Subcutaneous administration MRT [7, 21]: 67.9 min; Subcutaneous administration t1/2 [7, 21]: 38.4 min; BA [7, 22]: 82% |
| S1C(disialo).N5C(disialo).A9C(disialo)-SRIF28 [Example 25] |  |  |  | 7.16 | 7.24 | 9.01 | 9.28 | 8.10 | 8.57 | 8.38 | 8.63 |  |  |  |  | 9.80 | 833 | 8.85 | 8.62 | 8.96 | GH ([2]; Table 7 (Example 86), subcutaneous, dose 100 nmol/kg, 1 hour before GRF, plasma GH 5 minutes after GRF, vehicle 861): 151 ng/mL; GH ([2]; Table 8 (Example 87), dose 100 nmol/kg, vehicle 1012): 151 ng/mL; Intravenous administration AUC [7, 20]: 4402 nM·min; Intravenous administration C0 [7, 20]: 938 nM; Intravenous administration MRT [7, 20]: 25.8 min; Intravenous administration t1/2 [7, 20]: 39.8 min; Subcutaneous administration AUC [7, 21]: 4015 nM·min; Subcutaneous administration Cmax [7, 21]: 24.8 nM; Subcutaneous administration MRT [7, 21]: 132 min; Subcutaneous administration t1/2 [7, 21]: 87.4 min; BA [7, 22]: 91%; AUC for intravenous administration [7, 23]: 4402 nM·min; bioavailability (BA), subcutaneous administration [7, 23]: 91% |
| S1C(trisialo)-SRIF28 [Example 55] | 8.31 |  |  |  |  |  |  |  |  |  |  | 9.39 | 8.25 | 8.72 | 8.71 |  |  | 9.96 | 9.42 | 10.05 | pIC50 (SSTR1 [8]; read-out: SSTR1 IC50): 7.77; pKi (SSTR5 [11]; read-out: SSTR5 Ki): 8.96 |

pIC50, pKi: −log10 of the molar value. Like-named read-outs stand apart in the source and are kept apart here.
